For one substance, LD50 results are on record in patent US7015343B2, “Sulphonated dehydrogenated sylvate, the preparation and use” (Shanghai Xingkang Pharmaceuticals Research & Development …, priority 2001, dated 2006).

The data set relates to KunMing mice. Conditions: oral administration, 14 days observing.

Turning to “Salts of Sulfodehydroabietic Acid with Zinc [NIPWZ]”, the LD50 (in general, the dose at which mortality reaches 50%) is at least 8000 mg/kg.
